Test system: M. tuberculosis MDR
Experiment: Anti-tuberculosis bioassay (tetrazolium microplate MIC)
Assay type: cell-based
Settings: Mycobacterium tuberculosis, read-out: Mycobacterium MIC MDR

COc1cc(/C=N\Nc2ncnc3sc4c(c23)CCCC4)ccc1O [II-15]
MIC: > 25 mg/L
